Experimental data: patent publication US20260274895A1, “DE NOVO DESIGNED MEMBRANE-TRAVERSING AND ORALLY BIOAVAILABLE MACROCYCLES” (UNIVERSITY OF WASHINGTON, priority 2022, published 2026)

Assay: Parallel artificial membrane permeability assay (PAMPA)
Details: average of three replicates; 16-20 hours incubation, 5% DMSO PBS

| Substance | PAMPA_Papp_Avg (apparent permeability) [×10⁻⁶ cm/s] |
| --- | --- |
| Plf*FP*ll*G [Design D8.15] | 0.768 |
| PpA*L*lIvP [Design D8.28] | 0.71 |
